Reference: paper PMC3150407, “Differential Inhibitor Sensitivity between Human Kinases VRK1 and VRK2” (PLoS ONE, 2011)

Chains of the proteins cited; added tags and fusions are not shown. Lines headed by an entry give the natural chain unless they say otherwise; changes in a name come on top.
UniProt Q86Y07: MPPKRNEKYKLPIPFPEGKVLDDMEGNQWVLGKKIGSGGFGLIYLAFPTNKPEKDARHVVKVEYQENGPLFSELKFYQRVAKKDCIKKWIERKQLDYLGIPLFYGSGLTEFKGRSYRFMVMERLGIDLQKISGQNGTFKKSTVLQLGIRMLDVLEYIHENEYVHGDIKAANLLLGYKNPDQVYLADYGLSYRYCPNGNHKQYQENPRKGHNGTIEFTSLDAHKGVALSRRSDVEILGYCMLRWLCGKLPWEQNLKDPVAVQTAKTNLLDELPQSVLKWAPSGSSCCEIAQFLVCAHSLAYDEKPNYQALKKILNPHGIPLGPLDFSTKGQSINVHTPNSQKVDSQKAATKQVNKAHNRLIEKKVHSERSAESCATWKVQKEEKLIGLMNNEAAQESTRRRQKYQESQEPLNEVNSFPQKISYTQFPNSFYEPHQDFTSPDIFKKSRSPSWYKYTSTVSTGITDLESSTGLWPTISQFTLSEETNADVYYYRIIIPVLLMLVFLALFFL

Key:
GST-VRK2A [1] = target: T1, GST-VRK2A (Homo sapiens, UniProt Q86Y07); experiment: In vitro kinase assay, GST-VRK2A phosphorylation of histone H3; type: biochemical; set-up: a full-length protein of 508 aminoacids (known as VRK2 and VRK2A); made in house; host or cells: E. coli BL21
GST-VRK2A [2] = target: T1, GST-VRK2A; experiment: In vitro kinase assay, GST-VRK2A autophosphorylation; conditions: read-out: IC50 (µM) GST-VRK2A Auto-phosphorylation
GST-VRK1 [3] = target: T2, GST-VRK1 (Homo sapiens, UniProt Q99986); experiment: In vitro kinase assay, GST-VRK1 autophosphorylation; type: biochemical
T2 construct: made in house
T2 sequence (Q99986 1-396): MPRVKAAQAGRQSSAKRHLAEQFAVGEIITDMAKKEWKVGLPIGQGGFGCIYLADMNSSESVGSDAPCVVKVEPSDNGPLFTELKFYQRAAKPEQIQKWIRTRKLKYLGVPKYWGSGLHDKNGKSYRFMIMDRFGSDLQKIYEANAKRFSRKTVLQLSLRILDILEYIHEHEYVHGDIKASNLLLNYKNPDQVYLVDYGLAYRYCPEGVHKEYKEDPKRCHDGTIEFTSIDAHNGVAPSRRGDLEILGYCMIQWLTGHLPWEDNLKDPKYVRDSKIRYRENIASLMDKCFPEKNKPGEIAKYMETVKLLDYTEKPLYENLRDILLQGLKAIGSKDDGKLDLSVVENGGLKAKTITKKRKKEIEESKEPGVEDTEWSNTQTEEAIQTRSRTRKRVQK

GST-VRK1 [4] = target: T2, GST-VRK1; experiment: In vitro kinase assay, GST-VRK1 phosphorylation of histone H3; type: biochemical

Indirubin-3’-monoxime
IC50 (GST-VRK2A [1]): 57.2 ± 1.17 µM
IC50 (GST-VRK2A [2]): 50.7 ± 1.23 µM
IC50 (µM) GST-VRK1 Auto- phosphorylation (GST-VRK1 [3]): No inhibition
IC50 (µM) GST-VRK1 H3 phosphorylation (GST-VRK1 [4]): No inhibition
